Measured values from ChEMBL document CHEMBL2057160, “Experimental and 'in silico' analysis of the effect of pH on HIV-1 protease inhibitor affinity: implications for the charge state of the protein ionogenic groups” (Bioorg Med Chem, 2012).

How the values were obtained:
[1] = target: T1, Protease (Human immunodeficiency virus 1, UniProt Q9YQ12); assay: Binding affinity to Human immunodeficiency virus 1 protease by SPR biosensor interaction analysis at pH 7.4
[2] = target: T1, Protease; assay: Binding affinity to Human immunodeficiency virus 1 protease by SPR biosensor interaction analysis at pH 5.1
[3] = target: T1, Protease; assay: Binding affinity to Human immunodeficiency virus 1 protease by SPR biosensor interaction analysis at pH 4.1

SMILES	Kd [1] [nM]	Kd [2] [nM]	Kd [3] [nM]
CC(C)(C)NC(=O)[C@@H]1CN(Cc2cccnc2)CCN1C[C@@H](O)C[C@@H](Cc1ccccc1)C(=O)N[C@H]1c2ccccc2C[C@H]1O [INDINAVIR]	1.2	1.38	5.45
CC(C)(C)NC(=O)[C@@H]1C[C@@H]2CCCC[C@@H]2CN1C[C@@H](O)[C@H](Cc1ccccc1)NC(=O)[C@H](CC(N)=O)NC(=O)c1ccc2ccccc2n1 [SAQUINAVIR]	0.577	0.637	4.13
